Measured values as given in patent US10172870B2, “Method of treating organophosphate intoxication by administration of neurosteroids” (dated 2019).

Assays:
[1] = tested on: GD-induced neuronal injury, neuronal cell death, and neurodegeneration; test: Soman-induced neuronal injury, neurodegeneration and neuroinflammation (FJB, NeuN, PV, GFAP histology, neurostereology); settings: for acute neuronal injury assessed by FJB-positive cell counts: 40 minutes after soman
[2] = tested on: VX-induced acute neuronal damage; test: VX-induced acute neuronal injury in hippocampus CA1 (FJB staining); settings: ganaxolone 10 mg/kg im 40 minutes after VX
[3] = tested on: VX-induced seizures or status epilepticus; test: VX-induced OP intoxication, seizures and status epilepticus in rats
[4] = tested on: soman-induced SE and seizure activity; test: Soman-induced OP intoxication, seizures and status epilepticus in rats (behavioral and EEG monitoring, mortality)
[5] = tested on: soman-induced long-term cognitive neurobehavioral and epileptogenic dysfunction; test: Soman-induced long-term epileptogenic and memory dysfunction (video-EEG, novel object recognition test)
[6] = tested on: pilocarpine model of refractory SE; settings: given 60-min after SE, rats; cited from earlier work

In the case of `C[C@]12CC[C@@H](O)C[C@@H]1CC[C@@H]1[C@@H]2CC[C@]2(C)[C@@H](O)CC[C@@H]12`, the “acute neuronal injury assessed by FJB-positive cell counts” value (from here on “acute neuronal injury assessed”) ([1]; neurosteroid 100 mg/kg im) is reported as “significantly prevented”.

For `CC(=O)[C@H]1CC[C@H]2[C@@H]3CC[C@H]4C[C@](C)(O)CC[C@]4(C)[C@H]3CC[C@]12C`, the “fractional cell death assessed by FJB(+) staining and unbiased quantitative stereology” value [2] was “significantly reduced”, the “acute neuronal injury assessed” value ([2]; 24 h post-VX) was “significantly prevented” and the “decrease of cell death of interneurons assessed by parvalbumin (PV) staining” value ([1]; ganaxolone 10 mg/kg im, 40 min or later after soman) was greater than 85%. For the same compound, the “neuroinflammation assessed by GFAP-positive staining” value ([1]; ganaxolone 10 mg/kg im, 40 min post-GD) was “significantly reduced”, the “time after treatment within which electrographic and behavioral activity was effectively controlled” value ([3]; ganaxolone 10 mg/kg im at 40 min after VX, rats) was 40 to 60 min and the survival rate ([3]; ganaxolone 10 mg/kg im, 40 minute post-exposure to VX) was “improved survival rate”. For the same compound, the “time after treatment within which electrographic and behavioral activity was effectively controlled” value ([4]; ganaxolone 10 mg/kg im given 40 min, 60 min or 120 min after soman, rats) was 40 to 60 min, the “memory impairment in the NORT” value ([5]; 3 months post-exposure to soman, ganaxolone-treated group) was “attenuated” and the “occurrence of epilepsy development (spontaneous seizures, video-EEG)” value ([5]; ganaxolone 6 & 10 mg/kg im, 1 to 3 months post-soman, control up to 75% animals with spontaneous seizures) was “significantly prevented”. The “EEG seizure intensity compared to soman control” value ([5]; ganaxolone 6 & 10 mg/kg im, post-soman) was “reduced”.

In the case of `Cc1ncc2n1-c1ccc(Cl)cc1C(c1ccccc1F)=NC2`, the “protection against soman-induced seizures” value ([4]; midazolam alone 2 mg/kg im at 40-min post-soman) is reported as “failed to protect”.

With `CC(=O)[C@H]1CC[C@H]2[C@@H]3CC[C@H]4C[C@H](O)CC[C@]4(C)[C@H]3CC[C@]12C` the “acute neuronal injury assessed” value ([1]; neurosteroid 10 mg/kg im) was “significantly prevented”.

With `CC(=O)[C@H]1CC[C@H]2[C@@H]3CC[C@H]4C[C@H](O)CC[C@]4(C)[C@H]3C(=O)C[C@]12C` the “acute neuronal injury assessed” value ([1]; neurosteroid 10 mg/kg im) was “significantly prevented”.

For 5α-pregnane-3α,21-diol-20-one, the “acute neuronal injury assessed” value ([1]; neurosteroid 10 mg/kg im) is listed as “significantly prevented” and the “termination of SE” value [6] is listed as “rapid and complete termination of SE”.
